{
  "source": "paper PMC9101684",
  "about": "“Hempseed (Cannabis sativa) Peptide H3 (IGFLIIWV) Exerts Cholesterol-Lowering Effects in Human Hepatic Cell Line” (Nutrients, 2022)",
  "biological_target": "T1, HMGCoAR (catalytic domain) (Homo sapiens, UniProt P04035)",
  "T1 construct": "HMGCoAR (catalytic domain) (2 µL); purchased Sigma-Aldrich",
  "T1 sequence (P04035 426-888 limits assumed)": "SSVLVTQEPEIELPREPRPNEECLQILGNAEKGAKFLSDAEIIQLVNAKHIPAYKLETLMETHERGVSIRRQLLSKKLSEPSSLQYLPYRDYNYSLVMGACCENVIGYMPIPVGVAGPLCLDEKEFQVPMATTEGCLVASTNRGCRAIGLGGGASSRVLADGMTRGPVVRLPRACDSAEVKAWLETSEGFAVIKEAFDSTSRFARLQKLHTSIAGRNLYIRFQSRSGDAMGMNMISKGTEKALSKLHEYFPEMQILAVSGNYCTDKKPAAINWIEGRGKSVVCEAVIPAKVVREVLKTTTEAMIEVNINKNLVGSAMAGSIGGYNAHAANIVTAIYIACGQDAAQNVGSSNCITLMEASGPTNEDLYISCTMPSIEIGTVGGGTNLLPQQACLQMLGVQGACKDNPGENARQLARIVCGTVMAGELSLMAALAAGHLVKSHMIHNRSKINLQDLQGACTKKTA",
  "assay": "HMGCoAR activity assay (NADPH oxidation, absorbance 340 nm)",
  "assay_type": "biochemical",
  "details": "purified catalytic domain of HMGCoAR, positive control, 37 °C, three independent experiments in triplicate",
  "data": [
    {"smiles": "CC[C@H](C)C(=O)O[C@H]1C[C@H](O)C=C2C=C[C@H](C)[C@H](CC[C@@H](O)C[C@@H](O)CC(=O)O)[C@H]21", "note": "[pravastatin]", "values": [
      {"measurement": "IC50", "value": 550, "unit": "nM"}
    ]}
  ]
}
